Laboratory results: US10968215B2 (SHANGHAI HAIHE PHARMACEUTICAL CO., LTD., priority 2016, dated 2021)
Read-outs that look alike come from different tables or passages of the source.

The chains behind the UniProt entries cited, without tags or fusion partners.
UniProt Q15910, whole entry Y641F: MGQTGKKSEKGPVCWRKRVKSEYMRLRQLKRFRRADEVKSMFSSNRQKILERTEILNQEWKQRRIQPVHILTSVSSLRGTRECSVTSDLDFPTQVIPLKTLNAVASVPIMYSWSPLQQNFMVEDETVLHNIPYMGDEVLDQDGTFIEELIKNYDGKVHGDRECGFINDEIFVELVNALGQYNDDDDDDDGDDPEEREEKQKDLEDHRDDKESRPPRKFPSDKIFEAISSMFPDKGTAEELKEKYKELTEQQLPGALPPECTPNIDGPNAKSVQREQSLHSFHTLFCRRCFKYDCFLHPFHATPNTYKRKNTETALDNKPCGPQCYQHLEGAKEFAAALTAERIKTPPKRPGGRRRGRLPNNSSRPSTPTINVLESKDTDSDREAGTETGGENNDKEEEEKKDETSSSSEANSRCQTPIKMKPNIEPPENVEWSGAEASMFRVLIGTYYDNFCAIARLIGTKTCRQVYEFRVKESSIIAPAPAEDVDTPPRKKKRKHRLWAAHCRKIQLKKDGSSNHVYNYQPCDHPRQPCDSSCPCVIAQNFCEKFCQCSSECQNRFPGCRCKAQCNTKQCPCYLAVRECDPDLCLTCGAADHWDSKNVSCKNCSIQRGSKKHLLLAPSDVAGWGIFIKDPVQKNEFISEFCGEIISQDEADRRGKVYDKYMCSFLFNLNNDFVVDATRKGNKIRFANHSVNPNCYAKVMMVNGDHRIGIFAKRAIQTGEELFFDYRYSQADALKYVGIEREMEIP
UniProt Q15910, whole entry: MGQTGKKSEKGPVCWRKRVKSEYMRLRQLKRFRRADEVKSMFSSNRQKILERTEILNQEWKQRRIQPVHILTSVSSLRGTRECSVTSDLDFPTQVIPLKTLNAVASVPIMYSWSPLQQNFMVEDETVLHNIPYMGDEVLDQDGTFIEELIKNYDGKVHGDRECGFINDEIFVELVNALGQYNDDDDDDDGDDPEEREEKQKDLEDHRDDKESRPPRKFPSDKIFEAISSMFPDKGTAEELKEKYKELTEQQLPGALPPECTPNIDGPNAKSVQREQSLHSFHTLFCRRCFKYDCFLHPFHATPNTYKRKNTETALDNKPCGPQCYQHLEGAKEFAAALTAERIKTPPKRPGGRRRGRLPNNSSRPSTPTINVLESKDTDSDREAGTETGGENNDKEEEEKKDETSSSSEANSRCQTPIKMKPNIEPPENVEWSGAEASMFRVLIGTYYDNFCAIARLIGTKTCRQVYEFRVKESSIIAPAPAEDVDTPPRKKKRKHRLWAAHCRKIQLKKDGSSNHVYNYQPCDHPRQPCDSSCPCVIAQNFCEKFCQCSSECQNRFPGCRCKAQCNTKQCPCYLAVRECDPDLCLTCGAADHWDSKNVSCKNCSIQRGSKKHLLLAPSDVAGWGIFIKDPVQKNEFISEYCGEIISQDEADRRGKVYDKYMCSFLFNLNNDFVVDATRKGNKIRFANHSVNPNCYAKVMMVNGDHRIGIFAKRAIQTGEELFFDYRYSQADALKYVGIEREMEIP

Columns and labels:
[1] = molecular target: PRC2 complex (EZH2 Y641F/EED/SUZ12/RbAp48/AEBP2) (Homo sapiens (Human), UniProt Q15910, Y641F); assay: Activity of a compound to PRC2 complex (EZH2 Y641F), HTRF
[2] = molecular target: PRC2 complex (EZH2/EED/SUZ12/RbAp48/AEBP2) (Homo sapiens (Human), UniProt Q15910); assay: Activity of a compound to PRC2 complex (EZH2 wild type), ELISA; assay type: biochemical; settings: class symbols
Text: 2. Determination of the Activity of a Compound to PRC2 Complex (EZH2 Wild Type):
Detection Method: Enzyme-Linked Immunosorbent Assay (ELISA)
MATERIALS: The PRC2 complex (EZH2/EED/SUZ12/RbAp48/AEBP2) histone methyltransferase was purchased from BPS; the substrate Biotin H3 (21-44) me0 was produced by AnaSpec; SAM was purchased from Sigma, which is GL Biochem product; methyl donor SAM was purchased from Sigma-aldrich; H3K27me3 antibody was purchased from BPS.
Experimental method: avdin of a final concentration of 100 nM was used to coat 96-well plate at 10 μL/well, placed in a wet box and shaken overnight, and then 100 μL 3% BSA per well was added and blocked for 1 h at room temperature. PRC2 complex (EZH2/EED/SUZ12/RbAp48/AEBP2), H3 (21-44) me0 substrate, methyl donor SAM and compound were added into each well of the blocked 96-well plate. The total reaction system was 100 μL, placed in a wet box and allowed to react for 1 h on shaker at room temperature. The plate was washed with TBS-T [20 mM Tris-HCl (pH 7.2-7.4, room temperature), 150 mM NaCl, 0.1% (v/v) Tween-20] for 3 times, blocked with 3% BSA for 10 min, and anti-H3K27me3 antibody was added and incubated for 1 h in a wet box on shaker at room temperature. […] The plate was read by a plate reader at 490 nm and IC50 of the compound was calculated using SoftMax Pro 5.4.1 software.

| Structure (SMILES) | IC50 [1] | IC50 [2] | IC50 ([1]; read-out: IC50 (EZH2_Y641F), EZH2 Y641F PRC2 complex, HTRF, class symbols) |
| --- | --- | --- | --- |
| Cc1cc(C)c(CNC(=O)c2cc3cc(Br)cn3c(C(C)N3CCOCC3)c2C)c(=O)[nH]1 (stereo not shown) [Example 29, 2-bromo-N-((4,6-dimethyl-2-oxo-1,2-dihydropyridin-3-yl)methyl)-6-methyl-5-(1-morpholinylethyl)indolizine-7-carboxamide] | < 100 nM | – | – |
| COc1cc(C)[nH]c(=O)c1CNC(=O)c1cc2c(-c3ccn[nH]3)ccn2c([C@H](C)N2CCN(CC(F)(F)F)CC2)c1C (single isomer, unassigned) [Compound 155, (S)—N-((4-methoxy-6-methyl-2-oxo-1,2-dihydropyridin-3-yl)methyl)-6-methyl-1-(1H-pyrazol-5-yl)-5-(1-(4-(2,2,2-trifluoroethyl)piperazin-1-yl)ethyl)indolizine-7-carboxamide or (R)—N-((4-methoxy-6-methyl-2-oxo-1,2-dihydropyridin-3-yl)methyl)-6-methyl-1-(1H-pyrazol-5-yl)-5-(1-(4-(2,2,2-trifluoroethyl)piperazin-1-yl)ethyl)indolizine-7-carboxamide] | – | < 100 nM | 100 to 1000 nM |
| COc1cc(C)[nH]c(=O)c1CNC(=O)c1cc2c(-c3ccn[nH]3)ccn2c(C(C)N2CCN(CC(F)(F)F)CC2)c1C (stereo not shown) [Compound 154, N-((4-methoxy-6-methyl-2-oxo-1,2-dihydropyridin-3-yl)methyl)-6-methyl-1-(1H-pyrazol-5-yl)-5-(1-(4-(2,2,2-trifluoroethyl)piperazin-1-yl)ethyl)indolizine-7-carboxamide] | – | < 100 nM | – |
